According to patent US20230242616A1, “CHEMOKINE-SELECTIVE CXCR4 ECTODOMAIN-DERIVED (POLY)PEPTIDE” (Ludwig-Maximilians-Universität München, priority 2020, published 2023):

Columns and labels:
[1] = biological target: HA-tagged sCD74(73-232) (human) (UniProt P04233); test: microscale thermophoresis; 50 nM MST-Red-MIF titrated with HA-sCD74(73-232) in the presence of 2 µM msR4M-L1
[2] = biological target: CD74 expressed on HEK293-CD74 transfectants (UniProt P04233); test: flow cytometry, Alexa 488-MIF on HEK293-CD74 transfectants, no msR4M-L1; the control plot prints Q3 1,02
[3] = biological target: HA-tagged sCD74(73-232) (human) (UniProt P04233); test: microscale thermophoresis; 50 nM MST-Red-MIF titrated with HA-sCD74(73-232) up to 2 µM
[4] = biological target: CD74 expressed on HEK293-CD74 transfectants (UniProt P04233); test: flow cytometry, Alexa 488-MIF on HEK293-CD74 transfectants in the presence of 5 x-fold msR4M-L1; the control plot prints Q3 1,02

B1: human macrophage migration-inhibitory factor (MIF) (ligand, UniProt P14174 2-115, looked up)
chain: PMFIVNTNVPRASVPDGFLSELTQQLAQATGKPPQYIAVHVVPDQLMAFGGSSEPCALCSLHSIGKIGGAQNRSYSKLLCGLLAERLRISPDRVYINYYDMNAANVGWNNSTFA
modifications: Alexa-Fluor 488 or Monolith NT-647 (MST-Red) label where so named
Kd [1]: 21.8 nM
Q3 (share of events in the Alexa 488-MIF+ quadrant) [2]: 5.05
Kd [3]: 54.5 nM
Q3 (share of events in the Alexa 488-MIF+ quadrant) [4]: 4.89
